US20190070183A1, “Targeting Casein Kinase-1 and PI3K/AKT/mTOR Pathways for Treatment of c-Myc-Overexpressing Cancers, Organ Transplant Associated Complications and Autoimmune Diseases” (The Trustees of Columbia University in the City of New York, priority 2015, published 2019)

Amino acid sequences for entries named in this document (tags omitted). A change or cut given only in a name is not applied to a line headed by its entry.
UniProt P42336, whole entry: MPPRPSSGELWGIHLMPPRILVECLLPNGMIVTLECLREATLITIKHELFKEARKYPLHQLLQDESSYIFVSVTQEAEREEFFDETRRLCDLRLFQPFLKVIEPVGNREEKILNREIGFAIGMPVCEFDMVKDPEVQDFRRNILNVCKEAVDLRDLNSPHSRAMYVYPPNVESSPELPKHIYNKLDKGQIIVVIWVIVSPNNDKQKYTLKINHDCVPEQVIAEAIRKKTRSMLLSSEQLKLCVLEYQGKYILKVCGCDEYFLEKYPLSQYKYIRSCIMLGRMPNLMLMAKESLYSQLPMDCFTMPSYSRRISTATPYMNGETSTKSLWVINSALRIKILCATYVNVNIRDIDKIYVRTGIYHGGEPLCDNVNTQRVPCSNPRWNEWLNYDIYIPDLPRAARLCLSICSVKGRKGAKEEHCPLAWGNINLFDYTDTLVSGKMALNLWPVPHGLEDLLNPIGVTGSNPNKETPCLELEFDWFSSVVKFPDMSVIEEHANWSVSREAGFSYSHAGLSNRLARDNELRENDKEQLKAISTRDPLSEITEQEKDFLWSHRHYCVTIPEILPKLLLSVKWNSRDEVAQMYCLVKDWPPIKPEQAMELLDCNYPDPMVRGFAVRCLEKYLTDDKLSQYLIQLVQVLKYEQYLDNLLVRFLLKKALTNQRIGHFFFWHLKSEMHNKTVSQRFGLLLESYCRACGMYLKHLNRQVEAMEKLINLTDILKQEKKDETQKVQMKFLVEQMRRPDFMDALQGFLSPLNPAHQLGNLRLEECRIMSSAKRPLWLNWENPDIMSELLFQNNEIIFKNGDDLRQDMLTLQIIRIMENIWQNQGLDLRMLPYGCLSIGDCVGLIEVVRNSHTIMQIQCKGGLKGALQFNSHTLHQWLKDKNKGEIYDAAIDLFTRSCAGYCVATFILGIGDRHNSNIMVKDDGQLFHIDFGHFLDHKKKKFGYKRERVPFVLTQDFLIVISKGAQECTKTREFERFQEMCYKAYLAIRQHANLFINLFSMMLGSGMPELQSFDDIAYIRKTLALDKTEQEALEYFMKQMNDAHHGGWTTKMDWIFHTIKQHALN
UniProt P42338: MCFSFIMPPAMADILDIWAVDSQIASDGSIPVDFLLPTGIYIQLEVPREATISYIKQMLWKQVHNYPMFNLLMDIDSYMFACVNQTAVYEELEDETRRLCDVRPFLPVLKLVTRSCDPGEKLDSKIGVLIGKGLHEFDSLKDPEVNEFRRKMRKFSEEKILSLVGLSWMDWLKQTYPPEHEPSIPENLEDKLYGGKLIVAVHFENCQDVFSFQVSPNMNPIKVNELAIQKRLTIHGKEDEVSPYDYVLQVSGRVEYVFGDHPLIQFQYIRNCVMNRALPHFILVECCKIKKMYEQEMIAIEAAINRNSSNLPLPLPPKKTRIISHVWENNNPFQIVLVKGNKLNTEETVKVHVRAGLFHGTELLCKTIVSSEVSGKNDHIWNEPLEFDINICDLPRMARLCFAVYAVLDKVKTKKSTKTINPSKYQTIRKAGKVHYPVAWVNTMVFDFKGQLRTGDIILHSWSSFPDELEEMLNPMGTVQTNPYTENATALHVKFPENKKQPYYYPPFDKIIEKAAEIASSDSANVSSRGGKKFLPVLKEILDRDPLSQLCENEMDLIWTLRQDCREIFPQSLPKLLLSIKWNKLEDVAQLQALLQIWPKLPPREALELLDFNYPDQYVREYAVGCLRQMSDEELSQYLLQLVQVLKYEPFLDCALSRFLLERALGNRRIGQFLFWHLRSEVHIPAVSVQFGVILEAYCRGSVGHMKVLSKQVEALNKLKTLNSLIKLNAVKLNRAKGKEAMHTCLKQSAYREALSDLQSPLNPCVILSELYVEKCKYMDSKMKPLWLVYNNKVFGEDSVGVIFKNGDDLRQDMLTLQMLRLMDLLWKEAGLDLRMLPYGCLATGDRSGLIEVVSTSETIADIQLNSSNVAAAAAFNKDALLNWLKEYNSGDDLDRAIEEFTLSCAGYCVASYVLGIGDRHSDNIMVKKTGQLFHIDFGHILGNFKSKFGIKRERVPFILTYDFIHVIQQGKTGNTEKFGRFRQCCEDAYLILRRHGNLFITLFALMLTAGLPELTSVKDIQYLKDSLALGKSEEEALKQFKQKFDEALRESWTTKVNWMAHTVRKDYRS
UniProt P48736: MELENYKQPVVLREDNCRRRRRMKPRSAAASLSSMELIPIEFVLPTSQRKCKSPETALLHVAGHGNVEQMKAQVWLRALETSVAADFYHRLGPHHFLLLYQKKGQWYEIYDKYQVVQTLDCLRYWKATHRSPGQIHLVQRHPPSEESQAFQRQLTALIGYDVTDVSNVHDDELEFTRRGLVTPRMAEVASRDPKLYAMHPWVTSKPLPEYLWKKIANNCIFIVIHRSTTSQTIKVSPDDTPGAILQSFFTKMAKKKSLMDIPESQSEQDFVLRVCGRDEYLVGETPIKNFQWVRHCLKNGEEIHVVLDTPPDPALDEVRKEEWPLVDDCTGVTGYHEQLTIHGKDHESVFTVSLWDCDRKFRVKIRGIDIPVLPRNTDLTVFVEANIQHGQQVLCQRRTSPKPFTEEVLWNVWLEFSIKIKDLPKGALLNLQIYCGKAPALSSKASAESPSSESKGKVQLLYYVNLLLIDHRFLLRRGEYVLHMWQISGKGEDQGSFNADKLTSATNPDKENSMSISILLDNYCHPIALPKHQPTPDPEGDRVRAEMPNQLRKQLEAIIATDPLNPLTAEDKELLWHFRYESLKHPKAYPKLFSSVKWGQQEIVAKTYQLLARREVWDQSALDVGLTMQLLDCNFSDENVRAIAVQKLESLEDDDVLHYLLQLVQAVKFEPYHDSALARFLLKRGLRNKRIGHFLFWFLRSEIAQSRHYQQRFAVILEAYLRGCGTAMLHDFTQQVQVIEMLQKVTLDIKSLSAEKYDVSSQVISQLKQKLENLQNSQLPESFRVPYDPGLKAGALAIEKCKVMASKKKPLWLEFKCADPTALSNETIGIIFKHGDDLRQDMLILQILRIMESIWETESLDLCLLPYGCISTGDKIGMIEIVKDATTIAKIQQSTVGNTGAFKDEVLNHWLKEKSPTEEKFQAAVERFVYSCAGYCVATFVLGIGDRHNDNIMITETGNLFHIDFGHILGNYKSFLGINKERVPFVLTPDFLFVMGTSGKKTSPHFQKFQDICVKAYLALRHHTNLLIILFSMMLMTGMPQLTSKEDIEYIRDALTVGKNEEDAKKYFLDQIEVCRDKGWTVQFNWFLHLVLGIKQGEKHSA
UniProt P48730: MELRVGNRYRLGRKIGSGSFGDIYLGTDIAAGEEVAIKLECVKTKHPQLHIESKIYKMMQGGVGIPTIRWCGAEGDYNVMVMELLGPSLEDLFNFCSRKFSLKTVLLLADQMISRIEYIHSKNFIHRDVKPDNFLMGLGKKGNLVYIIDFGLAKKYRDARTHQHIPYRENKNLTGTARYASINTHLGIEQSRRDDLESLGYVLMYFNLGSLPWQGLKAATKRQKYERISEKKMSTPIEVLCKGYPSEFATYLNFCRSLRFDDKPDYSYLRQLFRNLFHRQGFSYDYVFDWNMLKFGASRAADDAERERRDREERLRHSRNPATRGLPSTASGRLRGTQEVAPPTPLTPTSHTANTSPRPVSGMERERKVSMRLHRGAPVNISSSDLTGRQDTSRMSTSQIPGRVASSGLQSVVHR
UniProt P49674: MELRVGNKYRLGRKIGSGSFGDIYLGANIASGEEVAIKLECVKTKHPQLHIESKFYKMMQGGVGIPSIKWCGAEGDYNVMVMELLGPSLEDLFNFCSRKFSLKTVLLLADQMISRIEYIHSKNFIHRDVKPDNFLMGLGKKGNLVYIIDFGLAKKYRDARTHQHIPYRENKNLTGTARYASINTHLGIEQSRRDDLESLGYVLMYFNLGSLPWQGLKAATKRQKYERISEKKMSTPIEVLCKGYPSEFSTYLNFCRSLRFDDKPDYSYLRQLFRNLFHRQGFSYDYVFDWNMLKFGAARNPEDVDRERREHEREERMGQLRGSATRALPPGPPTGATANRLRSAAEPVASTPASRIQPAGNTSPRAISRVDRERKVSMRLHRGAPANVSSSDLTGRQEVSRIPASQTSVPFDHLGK

Legend:
[1] = target: PI3Kα (Homo sapiens, UniProt P42336); settings: selectivity of δ over α, cell free
[2] = target: PI3Kβ (Homo sapiens, UniProt P42338); settings: selectivity of δ over β, cell free
[3] = target: PI3Kγ (Homo sapiens, UniProt P48736); settings: selectivity of δ over γ, cell free
[4] = target: CK1ε, which is more than 97% identical to CK1ε in their kinase domains (Homo sapiens, UniProt P48730); settings: cell free, 1 μM
[5] = target: CK1ε (Homo sapiens, UniProt P49674); assay: Kinome profiling (Reaction Biology, radioisotope filter binding); settings: read-out: inhibition of kinase activity of CK1 epsilon, cell free, 1 μM

## CC(C)Oc1ccc(-c2nn([C@@H](C)c3oc4ccc(F)cc4c(=O)c3-c3cccc(F)c3)c3ncnc(N)c23)cc1F [TGR-1202]
[1]
  IC50(PI3Kα)/IC50(PI3Kδ): 10000 times
[2]
  IC50(PI3Kβ)/IC50(PI3Kδ): 50 times
[3]
  IC50(PI3Kγ)/IC50(PI3Kδ): 48 times
[4]
  inhibition of kinase activity: not inhibited
[5]
  inhibition at 1 µM: > 60%
